Calls of active or inactive are those of the source. No cut-off for these calls is given here.
Target: T1, Peroxisome proliferator-activated receptor alpha (Homo sapiens) (UniProt Q07869)
T1 sequence (whole entry): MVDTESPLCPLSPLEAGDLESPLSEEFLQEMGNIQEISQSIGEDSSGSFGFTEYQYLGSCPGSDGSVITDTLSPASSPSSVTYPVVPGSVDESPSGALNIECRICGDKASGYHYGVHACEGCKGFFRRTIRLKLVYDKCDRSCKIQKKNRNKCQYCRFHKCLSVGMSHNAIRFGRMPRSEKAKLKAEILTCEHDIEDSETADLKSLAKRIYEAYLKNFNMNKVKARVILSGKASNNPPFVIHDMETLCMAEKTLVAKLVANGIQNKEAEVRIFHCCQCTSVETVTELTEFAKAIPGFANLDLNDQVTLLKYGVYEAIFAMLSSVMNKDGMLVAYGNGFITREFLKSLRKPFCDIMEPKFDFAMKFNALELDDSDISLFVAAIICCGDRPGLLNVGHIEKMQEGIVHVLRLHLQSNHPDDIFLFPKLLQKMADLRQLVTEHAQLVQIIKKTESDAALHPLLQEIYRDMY
Assay: Agonist activity at GAL4-DNA binding domain fused human PPARalpha ligand binding domain expressed in human HepG2 cells assessed as receptor transactivation incubated for 20 hrs by luciferase reporter gene assay relative to Wy-14,643
Assay type: cell-based

Emax: inactive
Structure (SMILES): CCCCCCCO/N=C/c1ccc(OC(Cc2ccccc2)C(=O)O)cc1 (racemic)
